Sequences of proteins named here, by UniProt entry; tags and fusion partners are left off. A change or cut given only in a name is not applied to a line headed by its entry.
UniProt Q13639: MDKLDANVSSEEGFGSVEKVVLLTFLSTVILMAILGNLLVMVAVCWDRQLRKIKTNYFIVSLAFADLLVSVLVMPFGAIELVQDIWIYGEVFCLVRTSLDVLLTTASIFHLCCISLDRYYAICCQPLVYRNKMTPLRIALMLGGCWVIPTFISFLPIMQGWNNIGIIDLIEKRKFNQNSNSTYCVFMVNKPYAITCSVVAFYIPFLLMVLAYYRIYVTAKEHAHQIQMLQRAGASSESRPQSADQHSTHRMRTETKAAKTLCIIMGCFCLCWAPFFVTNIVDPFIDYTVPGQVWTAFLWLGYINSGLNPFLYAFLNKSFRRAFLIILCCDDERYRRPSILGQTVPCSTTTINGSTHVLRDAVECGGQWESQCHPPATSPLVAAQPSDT

In BindingDB's records for doi:10.1097/00001756-199710200-00002 (Cnrs Upr 9023, 1997):

Target: 5-hydroxytryptamine receptor 4 (Homo sapiens, UniProt Q13639)

Ki: 174 nM
SMILES: COc1cc(N)c(Cl)cc1C(=O)NC1CCN2CCCC1C2 (stereo unspecified) [NSC_3035240]
